For eight molecules, IC50 results are on record in ChEMBL document CHEMBL5331053, “Defining the structure-activity relationship for a novel class of allosteric MKP5 inhibitors” (Eur J Med Chem, 2022).

For this experiment, the target named is T1, Dual specificity protein phosphatase 10 (Homo sapiens, UniProt Q9Y6W6).
T1 sequence (Q9Y6W6 whole entry): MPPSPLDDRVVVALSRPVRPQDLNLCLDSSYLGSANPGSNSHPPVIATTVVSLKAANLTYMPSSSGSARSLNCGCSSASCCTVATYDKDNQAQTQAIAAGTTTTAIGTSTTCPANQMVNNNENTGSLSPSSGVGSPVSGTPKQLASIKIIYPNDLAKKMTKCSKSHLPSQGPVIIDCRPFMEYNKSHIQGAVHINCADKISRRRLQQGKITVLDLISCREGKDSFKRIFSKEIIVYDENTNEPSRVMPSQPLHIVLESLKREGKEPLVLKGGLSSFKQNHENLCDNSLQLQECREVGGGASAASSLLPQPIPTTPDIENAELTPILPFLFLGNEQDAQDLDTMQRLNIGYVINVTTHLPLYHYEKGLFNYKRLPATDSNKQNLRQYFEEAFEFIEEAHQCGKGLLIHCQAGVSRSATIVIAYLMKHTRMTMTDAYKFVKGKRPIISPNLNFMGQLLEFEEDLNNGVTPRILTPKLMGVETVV
Nature of the experiment: Inhibition of MKP5 catalytic domain (unknown origin) expressed in Escherichia coli BL21 (DE3) cells assessed as p38alpha MAPK phosphopeptide dephosphorylation using phosphopeptide as substrate incubated for 15 mins followed by substrate addition by malachite green dye based analysis.
For orientation: IC50 means the concentration that inhibits the measured activity by half. `CSc1scc2c1-c1nc(SCC(=O)N3CCCC3)ncc1CC2`: the concentration for half-maximal inhibition (IC50) was greater than 200 µM.

With `CSc1scc2c1-c1nc(SC3CCCC(C)(C)C3=O)ncc1CC2` (stereo not drawn), the half-maximal inhibitory concentration (IC50) is greater than 200 µM.

Regarding `CC(C)Cc1scc2c1-c1nc(SCC(=O)C(C)(C)C)ncc1CC2`, the IC50 is greater than 200 µM.

Take `CSc1scc2c1-c1nc(SC3CCC(C)(C)C3=O)ncc1CC2` (stereo not drawn): the concentration for half-maximal inhibition (IC50) came out at 25 µM.

Consider `COc1ccc2c(c1)CCc1cnc(SCC(=O)C(C)(C)C)nc1-2`, for which the IC50 was greater than 200 µM.

For `CSc1scc2c1-c1nc(SCC(=O)N(C)C)ncc1CC2`, the IC50 is greater than 200 µM.

For the molecule `CCCc1scc2c1-c1nc(SCC(=O)C(C)(C)C)ncc1CC2`, the IC50 amounted to 11 µM.

Consider `CCN(CC)C(=O)CSc1ncc2c(n1)-c1c(csc1SC)CC2`, for which the half-maximal inhibitory concentration (IC50) was greater than 200 µM.
